Assay results from US20250084101A1, “COMPOUND FOR INHIBITING AND DEGRADING IRAK4, AND PHARMACEUTICAL COMPOSITION AND PHARMACEUTICAL APPLICATION THEREOF” (XIZANG HAISCO PHARMACEUTICAL CO., LTD., priority 2022, published 2025).

Protein sequences, listed by entry. Tags and fused reporters are not part of them.
UniProt Q9NWZ3, whole entry: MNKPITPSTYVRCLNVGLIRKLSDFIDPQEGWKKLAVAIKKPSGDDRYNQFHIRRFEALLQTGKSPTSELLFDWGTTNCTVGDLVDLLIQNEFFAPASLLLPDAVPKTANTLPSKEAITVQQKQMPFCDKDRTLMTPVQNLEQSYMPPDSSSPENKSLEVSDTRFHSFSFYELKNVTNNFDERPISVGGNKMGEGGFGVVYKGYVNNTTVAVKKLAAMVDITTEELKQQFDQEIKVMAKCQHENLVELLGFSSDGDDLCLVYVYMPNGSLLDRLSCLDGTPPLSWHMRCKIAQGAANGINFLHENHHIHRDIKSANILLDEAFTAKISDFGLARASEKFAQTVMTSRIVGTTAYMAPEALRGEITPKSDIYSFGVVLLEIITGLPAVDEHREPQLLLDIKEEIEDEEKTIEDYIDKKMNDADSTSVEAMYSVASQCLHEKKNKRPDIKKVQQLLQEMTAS
UniProt Q12809, whole entry: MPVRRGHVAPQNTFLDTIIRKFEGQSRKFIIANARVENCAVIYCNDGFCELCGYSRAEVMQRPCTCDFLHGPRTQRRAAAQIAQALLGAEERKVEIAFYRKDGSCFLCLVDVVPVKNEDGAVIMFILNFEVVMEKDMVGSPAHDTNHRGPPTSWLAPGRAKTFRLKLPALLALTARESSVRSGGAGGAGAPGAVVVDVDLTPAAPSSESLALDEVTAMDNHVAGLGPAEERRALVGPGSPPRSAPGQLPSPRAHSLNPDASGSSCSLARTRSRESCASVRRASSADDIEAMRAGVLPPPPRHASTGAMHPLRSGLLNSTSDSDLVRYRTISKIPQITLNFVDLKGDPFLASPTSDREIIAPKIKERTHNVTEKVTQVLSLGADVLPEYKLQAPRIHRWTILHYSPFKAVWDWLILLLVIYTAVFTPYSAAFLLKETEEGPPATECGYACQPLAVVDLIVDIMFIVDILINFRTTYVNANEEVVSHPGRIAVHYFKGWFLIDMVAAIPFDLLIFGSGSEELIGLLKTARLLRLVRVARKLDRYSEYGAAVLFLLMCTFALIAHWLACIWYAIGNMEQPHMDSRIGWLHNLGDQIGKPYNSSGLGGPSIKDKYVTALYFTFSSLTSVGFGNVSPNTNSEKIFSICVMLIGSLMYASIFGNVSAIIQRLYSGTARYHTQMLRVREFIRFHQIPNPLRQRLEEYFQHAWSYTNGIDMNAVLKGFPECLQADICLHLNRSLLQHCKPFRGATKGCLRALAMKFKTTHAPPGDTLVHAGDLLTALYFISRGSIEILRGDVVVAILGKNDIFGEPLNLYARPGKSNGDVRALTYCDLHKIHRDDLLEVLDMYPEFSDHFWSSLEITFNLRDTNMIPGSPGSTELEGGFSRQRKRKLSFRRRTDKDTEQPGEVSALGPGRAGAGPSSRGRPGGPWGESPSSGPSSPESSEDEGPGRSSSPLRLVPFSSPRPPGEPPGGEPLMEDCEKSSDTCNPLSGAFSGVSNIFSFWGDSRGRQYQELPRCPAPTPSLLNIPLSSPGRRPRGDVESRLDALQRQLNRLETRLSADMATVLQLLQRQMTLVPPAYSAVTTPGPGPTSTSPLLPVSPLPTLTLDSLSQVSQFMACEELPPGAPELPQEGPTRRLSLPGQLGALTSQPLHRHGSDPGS

Experiments:
[1] = molecular target: IRAK4 protein (Homo sapiens, UniProt Q9NWZ3); assay: IRAK4 degradation activity in hPBMC cells (24 hours); details: read-out: DC50 for IRAK4 protein degradation
Protocol: hPBMC cells are human peripheral blood mononuclear cells. Peripheral venous blood was taken from healthy volunteers, and hPBMCs were isolated using Ficoll density gradient centrifugation (Ficoll-Paque™ PLUS 1.077, GE, Cat. 17-1140-02). Culture conditions: RPMI-1640+10% FBS+1% penicillin-streptomycin solution. The cells were cultured in an incubator at 37° C. and 5% CO2. The cells were plated in a 24-well plate at 1×10^6 cells/well. After plating, compounds at different concentrations were added, and the cells were cultured in an incubator at 37° C. and 5% CO2 for 24 hours. After the culture was completed, the cells were collected, and RIPA lysis buffer (beyotime, Cat. P0013B) was added. The cells were lysed on ice for 20 minutes, and then centrifuged at 12000 rpm at 4° C. for 10 minutes. The protein sample of the supernatant was collected, the protein was quantified using a BCA kit (Beyotime, Cat. P0009), and then the protein was diluted to 1 mg/mL. The expression of IRAK4 (CST, Cat. 4363S) and the internal reference cofilin (CST, Cat. 5175S) were detected using a fully automated western blot quantitative analyzer (Proteinsimple). The expression level of IRAK4 relative to the internal reference was calculated using compass software. […] An IRAK4 degradation-drug concentration curve was fit using Graphpad Prism 8 software, and the DC50 was calculated.

[2] = molecular target: hERG potassium ion channel (Homo sapiens, UniProt Q12809); assay: Effect on hERG potassium ion channel (manual patch-clamp, CHO cells); details: read-out: IC50 for inhibitory effect on hERG potassium channel current; CHO cells stably expressing hERG, whole cell patch-clamp
Excerpt: Experimental platform: electrophysiological manual patch-clamp system
Cell line: Chinese hamster ovary (CHO) cell line stably expressing hERG potassium ion channel
Experimental method: In CHO (Chinese Hamster Ovary) cells stably expressing hERG potassium channel, whole cell patch-clamp technique was used to record hERG potassium channel current at room temperature. The glass microelectrode was made of a glass electrode blank (BF150-86-10, Sutter) by a puller. The tip resistance after filling the liquid in the electrode was about 2-5 MQ. The glass microelectrode can be connected to the patch-clamp amplifier by inserting the glass microelectrode into an amplifier probe. The clamping voltage and data recording were controlled and recorded by the pClamp 10 software through a computer. The sampling frequency was 10 kHz, and the filtering frequency was 2 kHz. […]
Data processing: Data analysis processing was carried out by using pClamp 10, GraphPad Prism 5 and Excel software. The inhibition degree of hERG potassium current (peak value of hERG tail current induced at −50 mV) at different compound concentrations was calculated by the following formula: […]
Compound IC50 was calculated using GraphPad Prism 5 software by fitting according to the following equation: […]

DC50 [1]: < 0.02 µM
SMILES: Cn1nc(C2CCC(=O)NC2=O)c2cccc(C#CCO[C@@H]3CCN(C[C@H]4CC[C@H](n5cc(NC(=O)c6cnn7ccc(N8CCO[C@H](CO)C8)nc67)c(C(F)F)n5)CC4)C[C@@H]3F)c21 (single isomer, unassigned)
IC50 [2]: > 40 µM
